# Data taken from patent US9938240B2, “Fluorinated derivatives of 3-hydroxypyridin-4-ones” (Apotex Technologies Inc., priority 2009, dated 2018).
# Test: Cyclic voltammetry of iron complexes
# Assay type: physicochemical
# Settings: 0.1M aqueous NaCl
substance,measurement,setting,value
Potassium ferricyanide (III),E1/2 vs. Ag/AgCl,pH 7.4,+20 mV
same,E1/2 vs. NHE,pH 7.4,+240 mV
same,ΔE,pH 7.4,85 mV
same,Eox,"pH 7.4, vs. Ag/AgCl",282 mV
same,Ered,"pH 7.4, vs. Ag/AgCl",197 mV
